Several values for one entry are separate records, joined by “and”; a condition that tells them apart may be missing. Equal values may be shown once. The list shows a part of the results, in another mix than the full data. Records with an inconclusive call do not appear. Activity calls are given as the source filed them. The call rests on the fitted dose curve.
Assay: p53 small molecule agonists, cell-based qHTS assay with human liver microsomes (AID 1963577);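 further: p53 response element beta-lactamase reporter cells with liver microsomes plus NADPH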
Conditions: HCT-116 p53RE-bla with human liver microsomes, ratio, 16 h; at 30.3 µM (top of the series)
From the text: National Center for Advancing Translational Sciences [NCATS]
Division of Preclinical Innovation [DPI]
U.S. Environmental Protection Agency [EPA]
National Institutes of Environmental Health Sciences [NIEHS]
National Toxicology Program [NTP]
U.S. Food and Drug Administration [FDA]
p53, a tumor suppressor protein, is activated following cellular insult, including DNA damage and other cellular stresses. The activation of p53 regulates cell fate by inducing DNA repair, cell cycle arrest, apoptosis, or cellular senescence. The activation of p53, therefore, is a good indicator of DNA damage and other cellular stresses. […] The activation of the reporter gene under culture conditions can be detected by fluorescence intensity.
Tox21 Assay Protocol Summary:
The p53RE-bla cells were dispensed at 4,000cells/3ul/well in 1536-well black-clear bottom plates. After the assay plates were incubated at 37 C, 5% CO2 incubator for 5 hours, 23 nL of compounds dissolved in DMSO, positive controls or DMSO only was transferred to the assay plate. Following compound addition, 3 uL of human liver microsomes (XenoTech, Kansas City, KS) at final concentration of 0.5 mg/mL and 1uL of Beta-Nicotinamide adenine dinucleotide 2-phosphate (NADPH) at final concentration of 0.5 mg/mL were transferred to the assay plate. The plates were incubated at 37 C for 16 hours. 1 uL of LiveBLAzer detection mixture was added to each well and the plates were incubated at room temperature in the dark for 2 h.
On the % scale 0 is the no-effect control and ±100 the full control effect.

| Structure (SMILES) | activation |
| --- | --- |
| OCCSCCO | inactive: -0.368% |

Same assay, conditions: HCT-116 p53RE-bla with human liver microsomes, ratio, 16 h; at 66 µM (top of the series)

| Structure (SMILES) | activation |
| --- | --- |
| OCCSCCO | inactive: -0.797% |

Same assay, conditions: HCT-116 p53RE-bla with human liver microsomes, ratio, 16 h; at 66 µM (top of the series) unless noted

| Structure (SMILES) | activation |
| --- | --- |
| Cc1ccc([N+](=O)[O-])cc1[N+](=O)[O-] | inactive: -2.47% and inactive: -2.08% |
| CP(=O)(O)OCCC[Si](O)(O)O | inactive: 2.41% |
| COc1ccc([N+](=O)[O-])cc1[N+](=O)[O-] | inactive: 0.0211% |
| N#CBr | inactive: -1.17% |
| CC(C)N(CCO)C(C)C | inactive: -0.412% |
| Nc1cc([N+](=O)[O-])cc([N+](=O)[O-])c1O | inactive: -2.67% |
| CN(C)CCCl | inactive: 2.27% |
| Cc1c([N+](=O)[O-])cccc1[N+](=O)[O-] | inactive: 2.08% and inactive: 0.115% |
| O=[N+]([O-])c1cccc([N+](=O)[O-])c1 | inactive: 0.962% |
| Cc1cccc([N+](=O)[O-])c1[N+](=O)[O-] | inactive: 6.17% [at 30.3 µM] |
| CCN(CC)CCCl | inactive: 1.86% |
| O=[N+]([O-])OCC(CO[N+](=O)[O-])(CO[N+](=O)[O-])CO[N+](=O)[O-] | inactive: 2.08% |
| Cc1ccc([N+](=O)[O-])c([N+](=O)[O-])c1 | inactive: -16.8% and inactive: 0.344% |
| C/C1=C2N=C(/C=C3N=C(/C(C)=C4\[N-][C@@](C)([C@@H]5N=C1[C@](C)(CCC(=O)NC[C@@H](C)OP(=O)([O-])O[C@H]1[C@@H](O)[C@@H](n6cnc7cc(C)c(C)cc76)O[C@@H]1CO)[C@H]5CC(N)=O)[C@@](C)(CC(N)=O)[C@@H]4CCC(N)=O)[C@@](C)(CC(N)=O)[C@@H]\3CCC(N)=O)C(C)(C)[C@@H]/2CCC(N)=O.[C-]#N.[Co+3] | inactive: 0.709% [at 30.3 µM] |
| N=C(N)N[N+](=O)[O-] | inactive: 1.22% |
| CCOP(=O)(CC)Oc1ccc([N+](=O)[O-])cc1 (stereo unspecified) | inactive: -0.347% [at 30.3 µM] |
| CCOP(=O)(CC)OCC | inactive: 2.46% |
| COP(C)(=O)OC | inactive: -2.77% and inactive: -12.1% |
| CC(C)OP(C)(=O)OC(C)C | inactive: -12.7% and inactive: -1.8% |

From PubChem BioAssay (Tox21)
